Experimental data published in patent publication US20260384450A1, “MACROCYCLIC AMINOPYRIDINE COMPOUNDS AS EGFR INHIBITORS” (published 2026).

Amino acid sequences for entries named in this document (tags omitted). A change or cut given only in a name is not applied to a line headed by its entry. Chains listed by the source or under a name are the forms on record and can include a tag or linker. Residues count along the entry.
UniProt P00533, 25-1210 limits assumed: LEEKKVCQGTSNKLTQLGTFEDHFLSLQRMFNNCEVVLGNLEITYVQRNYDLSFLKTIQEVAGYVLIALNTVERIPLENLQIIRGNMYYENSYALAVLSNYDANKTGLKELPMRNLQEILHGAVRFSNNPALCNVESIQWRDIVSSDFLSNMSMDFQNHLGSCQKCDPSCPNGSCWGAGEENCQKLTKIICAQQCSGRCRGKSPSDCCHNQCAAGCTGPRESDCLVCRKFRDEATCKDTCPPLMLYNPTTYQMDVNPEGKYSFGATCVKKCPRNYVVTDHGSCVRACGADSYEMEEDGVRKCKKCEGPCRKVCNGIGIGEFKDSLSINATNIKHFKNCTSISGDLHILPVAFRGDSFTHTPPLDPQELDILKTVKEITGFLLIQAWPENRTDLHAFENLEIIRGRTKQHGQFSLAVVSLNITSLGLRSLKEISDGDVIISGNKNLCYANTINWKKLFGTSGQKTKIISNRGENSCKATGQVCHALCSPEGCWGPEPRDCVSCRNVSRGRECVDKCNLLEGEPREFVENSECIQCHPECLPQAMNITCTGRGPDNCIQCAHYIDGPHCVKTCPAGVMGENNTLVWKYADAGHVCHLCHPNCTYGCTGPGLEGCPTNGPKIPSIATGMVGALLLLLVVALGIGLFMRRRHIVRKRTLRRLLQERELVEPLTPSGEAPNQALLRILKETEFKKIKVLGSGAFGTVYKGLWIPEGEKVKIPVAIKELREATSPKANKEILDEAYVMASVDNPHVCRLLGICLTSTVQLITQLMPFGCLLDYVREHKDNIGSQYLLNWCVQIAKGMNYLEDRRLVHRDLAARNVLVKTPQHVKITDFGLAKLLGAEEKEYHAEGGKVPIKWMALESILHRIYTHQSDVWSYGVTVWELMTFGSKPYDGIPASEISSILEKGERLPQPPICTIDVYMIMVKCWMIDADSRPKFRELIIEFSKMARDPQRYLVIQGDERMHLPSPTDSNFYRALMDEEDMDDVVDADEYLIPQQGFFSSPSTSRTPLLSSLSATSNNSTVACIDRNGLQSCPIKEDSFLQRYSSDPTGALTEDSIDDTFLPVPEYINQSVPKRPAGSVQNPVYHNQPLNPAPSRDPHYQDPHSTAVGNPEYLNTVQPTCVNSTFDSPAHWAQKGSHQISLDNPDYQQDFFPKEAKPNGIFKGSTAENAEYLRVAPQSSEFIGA
UniProt P00533, 25-1210 C797S/L858R limits assumed: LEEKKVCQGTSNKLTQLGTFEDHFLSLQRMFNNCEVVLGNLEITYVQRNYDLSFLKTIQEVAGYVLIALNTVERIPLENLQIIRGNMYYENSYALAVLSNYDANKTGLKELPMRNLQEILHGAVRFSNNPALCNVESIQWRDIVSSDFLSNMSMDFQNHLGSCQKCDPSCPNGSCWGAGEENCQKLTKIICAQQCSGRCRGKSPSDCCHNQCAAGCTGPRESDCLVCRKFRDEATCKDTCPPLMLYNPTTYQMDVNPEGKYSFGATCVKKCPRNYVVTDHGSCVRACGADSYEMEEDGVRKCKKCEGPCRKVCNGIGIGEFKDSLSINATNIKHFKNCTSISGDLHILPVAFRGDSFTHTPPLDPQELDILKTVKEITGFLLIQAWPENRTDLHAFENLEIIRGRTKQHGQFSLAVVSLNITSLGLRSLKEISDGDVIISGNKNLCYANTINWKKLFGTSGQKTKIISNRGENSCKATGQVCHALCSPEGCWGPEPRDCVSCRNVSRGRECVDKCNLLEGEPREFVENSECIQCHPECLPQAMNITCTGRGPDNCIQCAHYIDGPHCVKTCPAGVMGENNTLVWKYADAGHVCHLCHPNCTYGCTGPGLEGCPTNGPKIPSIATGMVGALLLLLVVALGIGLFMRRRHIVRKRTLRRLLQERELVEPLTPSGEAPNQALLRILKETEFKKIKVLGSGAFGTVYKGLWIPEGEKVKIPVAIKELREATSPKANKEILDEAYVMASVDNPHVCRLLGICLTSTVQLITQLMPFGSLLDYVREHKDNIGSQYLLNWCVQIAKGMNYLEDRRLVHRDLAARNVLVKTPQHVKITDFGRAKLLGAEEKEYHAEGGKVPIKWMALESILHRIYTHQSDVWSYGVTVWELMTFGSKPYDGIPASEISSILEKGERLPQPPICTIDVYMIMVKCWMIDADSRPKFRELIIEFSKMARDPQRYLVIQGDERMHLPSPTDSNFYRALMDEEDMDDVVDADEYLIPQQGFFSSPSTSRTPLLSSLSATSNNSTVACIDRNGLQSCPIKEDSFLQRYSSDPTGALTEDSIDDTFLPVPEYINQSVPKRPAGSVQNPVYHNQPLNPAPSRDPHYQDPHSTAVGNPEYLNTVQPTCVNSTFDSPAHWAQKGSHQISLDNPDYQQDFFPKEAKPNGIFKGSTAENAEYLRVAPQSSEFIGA
UniProt P00533, 25-1210 T790M/C797S/L858R limits assumed: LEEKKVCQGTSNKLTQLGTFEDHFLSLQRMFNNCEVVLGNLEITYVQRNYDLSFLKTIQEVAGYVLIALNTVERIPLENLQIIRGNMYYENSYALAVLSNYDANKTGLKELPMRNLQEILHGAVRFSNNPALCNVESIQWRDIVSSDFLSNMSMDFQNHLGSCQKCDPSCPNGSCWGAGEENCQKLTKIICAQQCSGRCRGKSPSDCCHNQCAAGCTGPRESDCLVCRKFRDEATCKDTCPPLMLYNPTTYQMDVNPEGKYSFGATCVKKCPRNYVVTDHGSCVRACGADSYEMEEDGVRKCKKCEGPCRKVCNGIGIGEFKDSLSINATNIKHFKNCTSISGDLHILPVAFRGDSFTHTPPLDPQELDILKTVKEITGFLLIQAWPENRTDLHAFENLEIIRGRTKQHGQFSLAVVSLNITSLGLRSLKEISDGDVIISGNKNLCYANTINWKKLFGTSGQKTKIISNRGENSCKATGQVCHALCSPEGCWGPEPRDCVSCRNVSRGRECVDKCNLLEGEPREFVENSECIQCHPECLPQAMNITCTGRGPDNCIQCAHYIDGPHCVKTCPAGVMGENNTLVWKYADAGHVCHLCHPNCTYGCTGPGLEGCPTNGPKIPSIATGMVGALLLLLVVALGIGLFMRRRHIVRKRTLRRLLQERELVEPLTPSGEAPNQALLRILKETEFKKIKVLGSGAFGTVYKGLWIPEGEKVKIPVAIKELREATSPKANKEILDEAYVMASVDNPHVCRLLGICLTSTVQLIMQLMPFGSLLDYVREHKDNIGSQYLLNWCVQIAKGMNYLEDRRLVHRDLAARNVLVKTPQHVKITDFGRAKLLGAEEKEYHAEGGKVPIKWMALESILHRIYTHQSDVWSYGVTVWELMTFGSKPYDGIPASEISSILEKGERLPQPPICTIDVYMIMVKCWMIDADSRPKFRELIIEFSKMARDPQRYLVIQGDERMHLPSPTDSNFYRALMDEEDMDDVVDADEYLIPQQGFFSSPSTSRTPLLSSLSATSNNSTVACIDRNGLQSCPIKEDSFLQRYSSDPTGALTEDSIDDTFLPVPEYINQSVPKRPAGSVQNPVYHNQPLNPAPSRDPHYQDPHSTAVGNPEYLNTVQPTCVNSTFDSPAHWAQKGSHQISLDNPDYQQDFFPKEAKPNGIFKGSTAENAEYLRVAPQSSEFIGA
UniProt P00533, with tags, fused parts or gaps DEL746-750/C797S limits assumed: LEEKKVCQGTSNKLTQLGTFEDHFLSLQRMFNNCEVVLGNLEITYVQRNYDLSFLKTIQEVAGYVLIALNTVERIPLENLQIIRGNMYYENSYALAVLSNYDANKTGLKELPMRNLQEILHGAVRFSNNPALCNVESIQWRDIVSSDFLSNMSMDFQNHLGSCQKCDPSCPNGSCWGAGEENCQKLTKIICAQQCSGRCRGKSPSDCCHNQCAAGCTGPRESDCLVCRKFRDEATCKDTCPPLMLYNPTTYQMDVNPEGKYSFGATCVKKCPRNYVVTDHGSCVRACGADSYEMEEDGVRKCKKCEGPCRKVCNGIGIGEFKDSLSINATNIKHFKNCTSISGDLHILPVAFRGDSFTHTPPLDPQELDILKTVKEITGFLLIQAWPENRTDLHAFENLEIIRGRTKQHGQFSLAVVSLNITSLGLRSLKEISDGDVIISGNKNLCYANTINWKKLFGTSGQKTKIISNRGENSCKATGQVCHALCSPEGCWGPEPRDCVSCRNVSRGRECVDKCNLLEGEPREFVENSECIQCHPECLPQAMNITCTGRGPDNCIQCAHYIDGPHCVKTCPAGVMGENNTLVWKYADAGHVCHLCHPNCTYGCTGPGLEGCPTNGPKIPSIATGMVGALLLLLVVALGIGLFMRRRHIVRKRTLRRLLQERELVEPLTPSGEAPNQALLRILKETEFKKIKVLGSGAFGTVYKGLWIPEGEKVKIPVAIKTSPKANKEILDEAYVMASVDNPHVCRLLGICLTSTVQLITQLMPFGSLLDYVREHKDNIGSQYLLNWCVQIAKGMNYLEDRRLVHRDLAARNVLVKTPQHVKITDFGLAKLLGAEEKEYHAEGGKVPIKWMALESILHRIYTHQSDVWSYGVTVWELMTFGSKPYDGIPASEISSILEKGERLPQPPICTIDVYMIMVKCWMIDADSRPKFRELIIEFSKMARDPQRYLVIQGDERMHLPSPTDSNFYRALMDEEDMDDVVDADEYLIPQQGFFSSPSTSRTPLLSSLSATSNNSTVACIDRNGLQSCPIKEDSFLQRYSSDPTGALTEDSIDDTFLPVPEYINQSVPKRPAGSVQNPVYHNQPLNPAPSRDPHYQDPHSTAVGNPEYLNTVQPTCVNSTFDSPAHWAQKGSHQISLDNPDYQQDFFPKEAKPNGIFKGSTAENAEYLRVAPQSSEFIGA
UniProt P00533, with tags, fused parts or gaps DEL746-750/T790M/C797S limits assumed: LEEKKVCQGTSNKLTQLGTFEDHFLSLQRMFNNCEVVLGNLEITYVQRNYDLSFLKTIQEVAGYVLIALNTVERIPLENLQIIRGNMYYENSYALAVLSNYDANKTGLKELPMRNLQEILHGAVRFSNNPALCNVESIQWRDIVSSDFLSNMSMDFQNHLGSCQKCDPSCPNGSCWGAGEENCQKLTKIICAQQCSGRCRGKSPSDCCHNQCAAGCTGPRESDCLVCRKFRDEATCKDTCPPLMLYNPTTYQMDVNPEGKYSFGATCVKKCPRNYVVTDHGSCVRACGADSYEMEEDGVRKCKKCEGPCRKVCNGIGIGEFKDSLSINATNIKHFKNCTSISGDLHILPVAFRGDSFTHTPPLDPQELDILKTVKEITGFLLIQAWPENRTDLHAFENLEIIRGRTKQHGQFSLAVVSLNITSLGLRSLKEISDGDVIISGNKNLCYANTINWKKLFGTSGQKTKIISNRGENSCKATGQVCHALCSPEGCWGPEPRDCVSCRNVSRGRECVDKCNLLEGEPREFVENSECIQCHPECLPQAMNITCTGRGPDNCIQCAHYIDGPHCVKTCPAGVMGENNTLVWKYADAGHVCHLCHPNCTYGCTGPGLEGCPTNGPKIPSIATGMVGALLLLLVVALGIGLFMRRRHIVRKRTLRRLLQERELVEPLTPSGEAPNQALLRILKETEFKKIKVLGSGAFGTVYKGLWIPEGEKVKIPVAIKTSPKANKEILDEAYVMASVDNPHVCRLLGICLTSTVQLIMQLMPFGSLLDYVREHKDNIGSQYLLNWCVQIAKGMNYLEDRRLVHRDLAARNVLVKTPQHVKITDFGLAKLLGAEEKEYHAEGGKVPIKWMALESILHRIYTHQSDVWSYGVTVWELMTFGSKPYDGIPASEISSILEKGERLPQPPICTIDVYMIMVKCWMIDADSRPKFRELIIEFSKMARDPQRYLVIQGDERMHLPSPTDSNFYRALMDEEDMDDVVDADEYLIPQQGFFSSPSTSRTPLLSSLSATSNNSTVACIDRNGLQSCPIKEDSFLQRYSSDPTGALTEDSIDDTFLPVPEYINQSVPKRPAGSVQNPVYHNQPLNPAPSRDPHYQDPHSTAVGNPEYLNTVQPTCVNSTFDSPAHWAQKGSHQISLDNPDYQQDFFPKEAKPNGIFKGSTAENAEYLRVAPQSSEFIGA

What was measured:
[1] = biological target: EGFR D19TMCS (del19/T790M/C797S) (Homo sapiens, UniProt P00533, C797S/DEL746-750/T790M); assay: Biochemical EGFR kinase assay (Lance Ultra TR-FRET), triple mutant del19/T790M/C797S
[2] = biological target: EGFR LRTMCS (L858R/T790M/C797S) (Homo sapiens, UniProt P00533, C797S/L858R/T790M); assay: Biochemical EGFR kinase assay (Lance Ultra TR-FRET), triple mutant L858R/T790M/C797S
EGFR LRCS (L858R/C797S) = EGFR LRCS (L858R/C797S) (Homo sapiens, UniProt P00533, C797S/L858R); assay: Biochemical EGFR kinase assay (Lance Ultra TR-FRET), double mutant L858R/C797S
EGFR WT = EGFR WT (Homo sapiens, UniProt P00533); assay: Biochemical EGFR kinase assay (Lance Ultra TR-FRET), wildtype
EGFR D19CS (del19/C797S) = EGFR D19CS (del19/C797S) (Homo sapiens, UniProt P00533, C797S/DEL746-750); assay: Biochemical EGFR kinase assay (Lance Ultra TR-FRET), double mutant del19/C797S
[3] = read-out: IC50, EGFR D19TMCS, Km, ATP at Km, EGFR del19/T790M/C797S
[4] = read-out: IC50, EGFR LRTMCS, 1 mM, ATP 1 mM, EGFR L858R/T790M/C797S
[5] = read-out: IC50, EGFR LRTMCS, Km, ATP at Km, EGFR L858R/T790M/C797S
[6] = read-out: IC50, EGFR-LRCS, 1 mM, ATP 1 mM, EGFR L858R/C797S
[7] = read-out: IC50, EGFR-LRCS, Km, ATP at Km, EGFR L858R/C797S
[8] = read-out: IC50, EGFR WT, 1 mM, ATP 1 mM, EGFR wildtype
[9] = read-out: IC50, EGFR WT, Km, ATP at Km, EGFR wildtype
[10] = read-out: IC50, EGFR-D19CS, 1 mM, ATP 1 mM, EGFR del19/C797S
[11] = read-out: IC50, EGFR-D19CS, Km, ATP at Km, EGFR del19/C797S
[12] = read-out: EGFR D19TMCS IC50, ATP 1 mM
[13] = read-out: EGFR D19TMCS IC50, ATP Km
[14] = read-out: EGFR LRTMCS IC50, ATP 1 mM
[15] = read-out: EGFR LRTMCS IC50, ATP Km
[16] = read-out: EGFR LRCS IC50, ATP 1 mM
[17] = read-out: EGFR LRCS IC50, ATP Km
[18] = read-out: EGFR WT IC50, ATP 1 mM
[19] = read-out: EGFR D19CS IC50, ATP 1 mM
[20] = read-out: EGFR D19CS IC50, ATP Km

| IC50 [1, 3] | IC50 [2, 4] | IC50 [2, 5] | IC50 (EGFR LRCS (L858R/C797S); [6]) | IC50 (EGFR LRCS (L858R/C797S); [7]) | IC50 (EGFR WT; [8]) | IC50 (EGFR WT; [9]) | IC50 (EGFR D19CS (del19/C797S); [10]) | IC50 (EGFR D19CS (del19/C797S); [11]) | IC50 [1, 12] | IC50 [1, 13] | IC50 [2, 14] | IC50 [2, 15] | IC50 (EGFR LRCS (L858R/C797S); [16]) | IC50 (EGFR LRCS (L858R/C797S); [17]) | IC50 (EGFR WT; [18]) | IC50 (EGFR WT; read-out: EGFR WT IC50, ATP Km) | IC50 (EGFR D19CS (del19/C797S); [19]) | IC50 (EGFR D19CS (del19/C797S); [20]) | SMILES |
| --- | --- | --- | --- | --- | --- | --- | --- | --- | --- | --- | --- | --- | --- | --- | --- | --- | --- | --- | --- |
| < 10 nM | < 10 nM | < 10 nM | 100 to 1000 nM | 10 to 100 nM | > 1000 nM | 10 to 100 nM | 10 to 100 nM | 10 to 100 nM |  |  |  |  |  |  |  |  |  |  | Cc1nn(C)c2c1-c1nccc(n1)Nc1cc(c(-c3ncc(CN4CCOCC4)cc3F)cn1)N[C@@H](C)CCO2 |
|  |  |  |  |  |  |  |  |  | < 10 nM | < 10 nM | < 10 nM | < 10 nM | 10 to 100 nM | < 10 nM | > 1000 nM | 10 to 100 nM | 10 to 100 nM | < 10 nM | Cc1nn(C)c2c1-c1nccc(n1)Nc1cc(c(-c3ncc(CN4CC[C@H](O)C4)cc3F)cn1)N[C@@H](C)CCO2 |
| < 10 nM | < 10 nM | < 10 nM | < 10 nM | < 10 nM | > 1000 nM | < 10 nM | < 10 nM | < 10 nM |  |  |  |  |  |  |  |  |  |  | Cc1nn(C)c2c1-c1nccc(n1)Nc1cc(c(-c3ncc(CN4CCC(C(C)(C)O)CC4)cc3F)cn1)NCC[C@H](C)O2 |
| < 10 nM | < 10 nM | < 10 nM | 10 to 100 nM | < 10 nM | > 1000 nM | 10 to 100 nM | < 10 nM | < 10 nM |  |  |  |  |  |  |  |  |  |  | Cc1nn(C)c2c1-c1nccc(n1)Nc1cc(c(-c3ncc(CN4CC(C(C)(C)O)C4)cc3F)cn1)N[C@@H](C)CCO2 |
|  |  |  |  |  |  |  |  |  | < 10 nM | < 10 nM | < 10 nM | < 10 nM | 10 to 100 nM | < 10 nM | > 1000 nM | < 10 nM | < 10 nM | < 10 nM | Cc1nn(C)c2c1-c1nccc(n1)Nc1cc(c(-c3ncc(CN4CC5(COC5)C4)cc3F)cn1)N[C@@H](C)CCO2 |
|  |  |  |  |  |  |  |  |  | < 10 nM | < 10 nM | < 10 nM | < 10 nM | 10 to 100 nM | < 10 nM | > 1000 nM | 100 to 1000 nM | < 10 nM | < 10 nM | Cc1nn(C)c2c1-c1nccc(n1)Nc1cc(c(-c3ccc(C(C)(C)O)cn3)cn1)N[C@@H](C)CCO2 |

More lines, now with the values behind:

| SMILES | IC50 [1, 3] | IC50 [2, 4] | IC50 [2, 5] | IC50 (EGFR LRCS (L858R/C797S); [6]) | IC50 (EGFR LRCS (L858R/C797S); [7]) | IC50 (EGFR WT; [8]) | IC50 (EGFR WT; [9]) | IC50 (EGFR D19CS (del19/C797S); [10]) | IC50 (EGFR D19CS (del19/C797S); [11]) | IC50 [1, 12] | IC50 [1, 13] | IC50 [2, 14] | IC50 [2, 15] | IC50 (EGFR LRCS (L858R/C797S); [16]) | IC50 (EGFR LRCS (L858R/C797S); [17]) | IC50 (EGFR WT; [18]) | IC50 (EGFR WT; read-out: EGFR WT IC50, ATP Km) | IC50 (EGFR D19CS (del19/C797S); [19]) | IC50 (EGFR D19CS (del19/C797S); [20]) |
| --- | --- | --- | --- | --- | --- | --- | --- | --- | --- | --- | --- | --- | --- | --- | --- | --- | --- | --- | --- |
| Cc1nn(C)c2c1-c1nccc(n1)Nc1cc(c(-c3cnc(C(C)(C)O)cn3)cn1)N[C@@H](C)CCO2 | < 10 nM | < 10 nM | < 10 nM | 10 to 100 nM | < 10 nM | > 1000 nM | < 10 nM | < 10 nM | < 10 nM |  |  |  |  |  |  |  |  |  |  |
| C[C@H]1CCOc2c(cnn2C)-c2nccc(n2)Nc2cc(c(-c3cnc(OC(F)F)cn3)cn2)N1 |  |  |  |  |  |  |  |  |  | < 10 nM | < 10 nM | 10 to 100 nM | < 10 nM | > 1000 nM | 10 to 100 nM | > 1000 nM | > 1000 nM | > 1000 nM | 100 to 1000 nM |
| C[C@@H]1CCNc2cc(ncc2-c2ccn(C(F)F)n2)Nc2ccnc(n2)-c2cnn(C)c2O1 |  |  |  |  |  |  |  |  |  | < 10 nM | < 10 nM | < 10 nM | < 10 nM | 100 to 1000 nM | < 10 nM | > 1000 nM | 10 to 100 nM | 10 to 100 nM | < 10 nM |
| Cc1nn(C)c2c1-c1nccc(n1)Nc1cc(c(-c3ccc(C(C)(O)C(F)(F)F)cn3)cn1)N[C@@H](C)CCO2 (stereo partly shown) |  |  |  |  |  |  |  |  |  | < 10 nM | < 10 nM | < 10 nM | < 10 nM | 10 to 100 nM | < 10 nM | > 1000 nM | < 10 nM | < 10 nM | < 10 nM |
| Cc1nn(C)c2c1-c1nccc(n1)Nc1cc(c(-c3cnc(CN4CCOCC4)cn3)cn1)N[C@@H](C)CCO2 | < 10 nM | < 10 nM | < 10 nM | 10 to 100 nM | < 10 nM | > 1000 nM | < 10 nM | < 10 nM | < 10 nM |  |  |  |  |  |  |  |  |  |  |
| C[C@H]1CCOc2c(cnn2C)-c2nccc(n2)Nc2cc(c(-c3ccc(OC(F)F)cn3)cn2)N1 |  |  |  |  |  |  |  |  |  | < 10 nM | < 10 nM | < 10 nM | < 10 nM | 100 to 1000 nM | 10 to 100 nM | > 1000 nM | 10 to 100 nM | 10 to 100 nM | < 10 nM |

Read-outs that look alike come from different tables or passages of the source.
